Literature values in US20140303128A1, “TRANSMUCOSAL HORMONE DELIVERY SYSTEM” (priority 2013, published 2014).
This is a selection: effects in other tests are not listed, and their absence says nothing.

Settings: current transmucosal therapy (lollipop)

CCC(=O)N(c1ccccc1)C1CCN(CCc2ccccc2)CC1
time to reach maximum plasma concentrations: over 20 minutes
